Tests used:
[1] = target: Kappa-type opioid receptor (Mus musculus) (UniProt P33534); experiment: Agonistic activity on field stimulated mouse vas deferens preparation expressed as molar potency ratio relative to standard agonist EKC
[2] = target: Kappa-type opioid receptor (Mus musculus) (UniProt P33534); experiment: In vitro efficacy in field stimulated mouse vas deferens assay expressed as Ke for naloxone versus compound
[3] = target: Kappa-type opioid receptor (Mus musculus) (UniProt P33534); experiment: In vitro efficacy against naloxone, in mouse vas deferens, activity expressed as Ke values.
[4] = target: Kappa-type opioid receptor (Mus musculus) (UniProt P33534); experiment: Molar potency ratio relative to the standard agonist EKC assayed in mouse vas deferens.

The chains behind the UniProt entries cited, without tags or fusion partners.
UniProt P33534, whole entry: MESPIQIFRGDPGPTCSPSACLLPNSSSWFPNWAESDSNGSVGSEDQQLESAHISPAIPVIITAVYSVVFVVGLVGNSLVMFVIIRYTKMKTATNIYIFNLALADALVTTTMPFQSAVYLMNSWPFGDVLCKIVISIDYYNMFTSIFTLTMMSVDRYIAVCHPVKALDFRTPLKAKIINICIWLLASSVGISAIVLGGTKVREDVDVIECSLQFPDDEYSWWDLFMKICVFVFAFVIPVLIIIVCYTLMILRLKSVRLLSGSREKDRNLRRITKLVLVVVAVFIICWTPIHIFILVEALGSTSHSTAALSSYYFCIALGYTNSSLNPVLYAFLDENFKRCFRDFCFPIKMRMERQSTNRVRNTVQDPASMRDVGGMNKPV

SMILES: COc1ccccc1C(CN1CCCC1)N(C)C(=O)Cc1ccc(Cl)c(Cl)c1 (stereo unspecified)
- Potency ratio [1]: 7.5
- Ke [2]: 11.6 nM

SMILES: CNc1cccc(C(CN2CCCC2)N(C)C(=O)Cc2ccc(Cl)c(Cl)c2)c1 (stereo unspecified)
- Potency ratio [1]: 7.7
- Ke [2]: 16.8 nM

SMILES: CSc1ccc(C(CN2CCCC2)N(C)C(=O)Cc2ccc(Cl)c(Cl)c2)cc1 (stereo unspecified)
- Potency ratio [1]: 0.48
- Ke [2]: 13.8 nM

SMILES: CC(C)[C@@H](CN1CCCC1)N(C)C(=O)Cc1ccc(Cl)c(Cl)c1
- Ke [3]: 14.9 nM
- Potency ratio [4]: 4.3

SMILES: CN(C(=O)Cc1ccc(Cl)c(Cl)c1)[C@H](CN1CCCC1)c1ccccc1
- Ke [3]: 17.8 nM
- Potency ratio [4]: 16.1

SMILES: CN(C(=O)Cc1ccc(Cl)c(Cl)c1)C(CN1CCCC1)c1cccc(Cl)c1 (stereo unspecified)
- Ke [3]: 5.7 nM
- Potency ratio [4]: 4.65

SMILES: CCC[C@@H](CN1CCCC1)N(C)C(=O)Cc1ccc(Cl)c(Cl)c1
- Ke [3]: 16.1 nM
- Potency ratio [4]: 0.9

SMILES: CN(C(=O)Cc1ccc(Cl)c(Cl)c1)C(CN1CCCC1)c1ccccc1O (stereo unspecified)
- Potency ratio [1]: 0.4

SMILES: COc1ccc(C(CN2CCCC2)N(C)C(=O)Cc2ccc(Cl)c(Cl)c2)c(OC)c1 (stereo unspecified)
- Potency ratio [1]: 1.8
- Ke [2]: 21.4 nM

SMILES: CN(C(=O)Cc1ccc(Cl)c(Cl)c1)C(CN1CCCC1)c1cccc(C#N)c1 (stereo unspecified)
- Potency ratio [1]: 0.53

SMILES: CC(C)[C@@H](CN1CCCCC1)N(C)C(=O)Cc1ccc(Cl)c(Cl)c1
- Ke [3]: 24.4 nM
- Potency ratio [4]: 1.45

SMILES: COc1ccc(C(CN2CCCC2)N(C)C(=O)Cc2ccc(Cl)c(Cl)c2)cc1OC (stereo unspecified)
- Potency ratio [1]: 21.3
- Ke [2]: 16 nM

SMILES: CN(C(=O)Cc1ccc(Cl)c(Cl)c1)C(CN1CCCC1)c1ccc(O)cc1 (stereo unspecified)
- Potency ratio [1]: 11
- Ke [2]: 52.7 nM

SMILES: CC(C)C[C@@H](CN1CCCC1)N(C)C(=O)Cc1ccc(Cl)c(Cl)c1
- Potency ratio [4]: 3.2

SMILES: CC[C@@H](CN1CCCC1)N(C)C(=O)Cc1ccc(Cl)c(Cl)c1
- Ke [3]: 19.9 nM
- Potency ratio [4]: 0.14

SMILES: CN(C(=O)Cc1ccc(Cl)c(Cl)c1)C(CN1CCCC1)C(C)(C)C (stereo unspecified)
- Ke [3]: 11 nM
- Potency ratio [4]: 2.5

SMILES: COc1cccc(C(CN2CCCC2)N(C)C(=O)Cc2ccc(Cl)c(Cl)c2)c1 (stereo unspecified)
- Potency ratio [1]: 2.45
- Ke [2]: 18.5 nM

SMILES: CCC(C)[C@@H](CN1CCCC1)N(C)C(=O)Cc1ccc(Cl)c(Cl)c1 (stereo partly specified)
- Ke [3]: 22.2 nM
- Potency ratio [4]: 8.5

SMILES: CC(C)[C@H](CN1CCCC1)N(C)C(=O)Cc1ccc(Cl)c(Cl)c1
- Ke [3]: 17.1 nM
- Potency ratio [4]: 0.015

SMILES: COc1ccc(C(CN2CCCC2)N(C)C(=O)Cc2ccc(Cl)c(Cl)c2)cc1 (stereo unspecified)
- Potency ratio [1]: 2.9
- Ke [2]: 12.9 nM

SMILES: C[C@@H](CN1CCCC1)N(C)C(=O)Cc1ccc(Cl)c(Cl)c1
- Ke [3]: 18.5 nM
- Potency ratio [4]: 0.14

SMILES: CN(C(=O)Cc1ccc(Cl)c(Cl)c1)[C@H](CN1CC=CC1)c1ccccc1
- Potency ratio [1]: 40.9
- Ke [2]: 26.1 nM

SMILES: CN(C(=O)Cc1ccc(Cl)c(Cl)c1)C(CN1CCCC1)c1cccc(O)c1 (stereo unspecified)
- Potency ratio [1]: 6.5

SMILES: CN(C(=O)Cc1ccc(Cl)c(Cl)c1)C(CN1CCCC1)c1cccc(N)c1 (stereo unspecified)
- Potency ratio [1]: 24
- Ke [2]: 11.3 nM

SMILES: CN(C(=O)Cc1ccc(Cl)c(Cl)c1)C(CN1CCCC1)c1ccccc1 (stereo unspecified)
- Ke [3]: 3.4 nM
- Potency ratio [4]: 5.2

— ChEMBL document CHEMBL1125782, “Structure/activity studies related to 2-(3,4-dichlorophenyl)-N-methyl-N-[2-(1-pyrrolidinyl)-1-substituted- ethyl]acetamides: a novel series of potent and selective kappa-opioid agonists” (1991)
